Measurements: patent US11547300B2, “Methods of treating and imaging tumor micrometastases using photoactive immunoconjugates” (priority 2014, dated 2023)
Entries after “also recorded” stand apart in the source; their conditions may differ.

Key:
EOC micrometastases [1] = details: mouse, in vivo
EOC micrometastases [2] = test: Longitudinal fluorescence microendoscopy of tumor burden during treatment; type: in vivo, mouse
Procedure: Longitudinal fluorescence microendoscopy imaging of tumor burden in mice receiving taPIT versus Cet-BPD (without photoactivation) is shown over time (FIGS. 8D and E). […] Note that taPIT was also performed on day 5, thus, some of these mice display reductions in tumor burden prior to day 8. […] Without this correction, treatment efficacy is more difficult to discern due to the intrinsic heterogeneity of microscopic disease. Thus, quantitative micrometastatic burden imaging will be critical for evaluation of treatment efficacy in preclinical and clinical studies of residual microscopic disease.
In vivo fluorescence microendoscopy.
Fluorescence microendoscopy image analysis.

[3] = TaPIT toxicology: survival >72 hours after treatment and bowel histology; type: in vivo, mouse
Text: TaPIT selectively destroys micrometastases. There is a critical need for tumor-selective therapies that can address residual micrometastases. […] The inventors next tested if this tumor-selective activation translates to a reduction in nonspecific phototoxicity.
Intraperitoneal taPIT and chemotherapy. EOC mice were randomized into the following groups: (i) no treatment; (ii) Cet-BPD without taPIT (0 J·cm^−1), 1 cycle; (iii) Cet-BPD without taPIT (0 J·cm^−1), 2 cycles; (iv) Cet-BPD with taPIT (50 J·cm^−1), 2 cycles; and, (v) Cet-BPD with taPIT (50-100 J·cm^−1), combined with 3-5 and 10-15 mg·kg^−1 body weight of cisplatin and paclitaxel, 1-2 cycles. All injections were done i.p. in 1 mL of sterile phosphate-buffered saline. The BPD dose was fixed at 2 mg·kg^−1 body weight. […] Treatment-associated mortality is defined as mice surviving less than 72 hours after treatment. Mice were illuminated 8-24 hours (taPIT) after immunoconjugate injection as follows. Mice were anesthetized with isoflurane during treatment and imaging. The light doses are defined as the energy delivered per unit length of the diffusing fiber tip per peritoneal quadrant (i.e., one-fourth of the total fluence per mouse). The inventors performed i.p. light irradiation as previously described. del Carmen et al., J Natl Cancer Inst 97:1516-1524 (2005). Briefly, all mice were injected i.p. with 2 mL of a 0.1% intralipid solution (Baxter Healthcare) to enhance light scattering. A cylindrically diffusing-tip fiber, connected to a 690 nm diode laser (High Power Devices), was introduced into the peritoneal cavity of a supine anesthetized animal via a centrally placed 14-gauge catheter that traversed the peritoneal wall. The 690 nm light was delivered at an irradiance of 150 (for 50 J·cm^−1 taPIT) or 300 mW·cm^−1 (for 100 J·cm^−1 taPIT). One-fourth of the total light energy was delivered to each intraperitoneal quadrant over equivalent periods.

[4] = ~7 BPD molecules per mAb; cited from earlier work
mouse and human EGFR = test: Cet-BPD binding to mouse and human EGFR, internalization and activation; type: cell-based, murine and human cells
Text: To address the question of inflated tumor selectivity due to a lack of cross-reactivity with basal mouse EGFR levels, the inventors investigated Cet-BPD binding to both mouse and human EGFR.

[5] = tested on: human EOC cells (NIH:OVCAR5) micrometastases; test: TaPIT efficacy: micrometastatic burden by qRT-PCR; type: in vivo, mouse
Procedure: To explore the potency of high-dose taPIT against microscopic tumors in large cavities, EOC mice bearing disseminated micrometastases were treated using a diffusing tip fiber for wide-field irradiation (FIG. 4F). A quantitative reverse transcription polymerase chain reaction (qRT-PCR) assay was employed to assess the number of viable, human EOC cells rigorously in biopsies and entire peritoneal cavities following treatment. Control, untreated EOC mice were characterized for the final tumor burden by qRT-PCR at time points matched to the various treatment courses. Treated mice received intraperitoneal administration of the immunoconjugate in the presence or absence of photoactivation. […] NIR photoactivation for taPIT (2 cycles) achieved a statistically significant mean reduction in tumor burden of 89% relative to untreated mice (FIG. 8B). This level of tumor reduction matches the synergistic reduction found using unconjugated BPD (2 cycles) and cetuximab (4 cycles) in combination. As a benchmark for nearly complete response, taPIT (1 cycle) with follow-up combination platinum- and taxane-based chemotherapy (1 cycle) achieves 97% mean tumor burden reduction (FIG. 8A; a second cycle added no significant benefit). […]

Substance: Tra-BPD(1:5)
- pharmacokinetics relative to Cet-BPD (EOC micrometastases [1]): altered pharmacokinetics
- tumor-to-tissue ratios relative to Cet-BPD (EOC micrometastases [1]): reduced tumor-to-tissue ratios

Substance: Cet-BPD
- integrated tumor fluorescence (EOC micrometastases [2]; taPIT, between days 11 and 14): decreased markedly
- tumor burden by integrated tumor fluorescence (EOC micrometastases [2]; without photoactivation): increasing tumor burden

Substance: Cet-BPD(1:7)
- fraction of EOC mice surviving taPIT (>72 hours), versus Cet-BPD(1:4) ([3]; 0, 50, 100 J·cm^−1, FIG. 8A): enhanced; also recorded: increased survival
- nonspecific phototoxicity compared to Cet-BPD(1:4) ([3]; FIG. 8A): reduced nonspecific phototoxicity
- bowel damage by bowel histology ([3]; high-dose taPIT): does not cause bowel damage
- BPD quenching [4]: 7 fold
- EGFR binding specificity, cellular internalization and activation profiles, murine versus human cells (mouse and human EGFR): similar
- number of EOC cells (qRT-PCR) ([5]; in the absence of photoactivation): trend in reduced number of EOC cells
- mean tumor burden reduction ([5]; taPIT (1 cycle) with follow-up platinum- and taxane-based chemotherapy (1 cycle)): 97%
